From PubChem BioAssay AID2240 (Broad Institute, 2010)
Only a part is listed here, and it is no random draw. Some salts and complexes are drawn in separate pieces, as the source files them; their charges need not balance. The source made the active and inactive calls. No stated cut-off is given here; in the data, active means inhibition above about 85%; inconclusive means no clear call, values can overlap the other calls; inactive means below about 68%.

Assay: blocks MITF activity, primary screen, MITF inhibitor project, cell-based, luminescence (AID 2240);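 further: human melanocyte line stably carrying TRPM1 promoter luciferase reporter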
Conditions: TRPM1 promoter luciferase, 24 h, stronger effect = higher value, concentration not given here

Which inhibition does the source give for `COc1cc2c(cc1NP(C)(=O)Oc1ccccc1)oc1ccccc12` (stereo unspecified) here?
The inhibition was inactive: 15.5%.

Which inhibition does the source give for `CN(C(=O)Cc1ccc(Cl)c(Cl)c1)[C@H]1CCCC[C@@H]1N1CCCC1` here?
Its inhibition is inactive: -6.36%.

Which inhibition does the source give for `C/C1=C2N=C(/C=C3N=C(/C(C)=C4\[N-][C@@](C)([C@@H]5N=C1[C@](C)(CCC(=O)NCC(C)OP(=O)(O)O[C@@H]1[C@H](O)[C@H](n6cnc7cc(C)c(C)cc76)O[C@H]1CO)[C@H]5CC(N)=O)[C@@](C)(CC(N)=O)[C@@H]4CCC(N)=O)[C@@](C)(CC(N)=O)[C@@H]\3CCC(N)=O)C(C)(C)[C@@H]/2CCC(N)=O.[C-]#N.[Co+3]` (stereo partly specified) here?
Its inhibition is inactive: -3.47%.

With `O=P1(Nc2ccccn2)COc2ccccc2OC1` as the compound, how does the inhibition read?
Its inhibition is inactive: 10.5%.

With `Cc1ccc(C(=O)OC2CN3CCC2CC3)cc1` (stereo unspecified) as the compound, how does the inhibition read?
Its inhibition is inactive: -6.43%.

For `O=C(OC1CN2CCC1CC2)c1ccc(Cl)cc1` (stereo unspecified), which inhibition is on record?
The inhibition was inactive: -1.57%.
